{"source": "patent US5613958A", "about": "“Transdermal delivery systems for the modulated administration of drugs” (PP Holdings Inc., priority 1995, dated 1997)", "origin": "cited, not measured here", "settings": "dose regimens of ISDN and IS-5-MN; literature studies"}
{"compound": "O=[N+]([O-])O[C@@H]1CO[C@H]2[C@@H]1OC[C@@H]2O", "note": "[IS-5-MN, isosorbide 5-mononitrate]", "values": [{"measurement": "plasma concentration of IS-5-MN before next dose with continuous antianginal efficacy", "result": "below 100 ng/ml"}]}
